# Literature values as cited in article PMC8480965 (The Journal of General Physiology, 2021).
# Columns and labels:
# Kv2.1 (Kv2.1-CHO cells) = biological target: T1, Kv2.1 (Kv2.1-CHO cells) (Rattus norvegicus, UniProt P15387); conditions: 100 nM GxTX; ref Tilley et al., 2019; cited from earlier work
# T1 sequence (P15387 1-857): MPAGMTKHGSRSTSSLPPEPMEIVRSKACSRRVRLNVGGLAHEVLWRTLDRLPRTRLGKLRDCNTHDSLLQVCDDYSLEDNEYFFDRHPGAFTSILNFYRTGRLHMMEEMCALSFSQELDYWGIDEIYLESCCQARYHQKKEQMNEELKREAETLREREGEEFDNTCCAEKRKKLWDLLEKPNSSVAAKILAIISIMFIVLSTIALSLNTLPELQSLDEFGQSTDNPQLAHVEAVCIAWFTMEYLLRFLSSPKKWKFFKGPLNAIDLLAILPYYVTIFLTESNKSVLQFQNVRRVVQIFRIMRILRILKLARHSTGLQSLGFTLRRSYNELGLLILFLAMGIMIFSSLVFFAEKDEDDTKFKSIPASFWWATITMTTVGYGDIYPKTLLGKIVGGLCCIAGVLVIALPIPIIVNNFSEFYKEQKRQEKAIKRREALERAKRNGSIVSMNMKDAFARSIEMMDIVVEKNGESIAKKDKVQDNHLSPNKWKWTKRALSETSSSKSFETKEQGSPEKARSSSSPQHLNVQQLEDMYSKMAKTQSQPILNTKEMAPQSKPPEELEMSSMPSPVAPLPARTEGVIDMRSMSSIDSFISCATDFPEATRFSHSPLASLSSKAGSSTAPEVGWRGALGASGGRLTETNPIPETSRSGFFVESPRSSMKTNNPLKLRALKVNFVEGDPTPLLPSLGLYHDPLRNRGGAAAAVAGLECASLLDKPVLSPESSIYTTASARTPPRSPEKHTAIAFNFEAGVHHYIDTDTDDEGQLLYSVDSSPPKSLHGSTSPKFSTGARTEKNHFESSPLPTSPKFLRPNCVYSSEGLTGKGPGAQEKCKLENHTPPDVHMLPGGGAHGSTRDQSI
# [1] = tested on: Kv2 channels; A-type Kv4 channels; conditions: ref Herrington et al., 2006, Liu and Bean, 2014, Speca et al.; cited from earlier work
substance,measurement,setting,value
"guangxitoxin-1E (EGECGGFWWKCGSGKPACCPKYVCSPKWGLCNFPMP; UniProt P84835 1-36, looked up) [GxTX]",Vmid,Kv2.1 (Kv2.1-CHO cells),+67 ± 6 mV
same,selectivity for Kv2 channels,[1],"selective for Kv2 channels, with some off-target modulation of A-type Kv4 channels"
